Values quoted from earlier work, collected in patent publication US5637309A, “Physiologically active substance-prolonged releasing-type pharmaceutical preparation” (Shiseido Company, Ltd., priority 1993, dated 1997).

System: contracted blood vessels
Conditions: subarachnoid hemorrhage rabbit models, aseptic solution into cisterna magna; cited from earlier work

Substance: calcitonin gene-related peptide (ACDTATCVTHRLAGLLSRSGGVVKNNFVPTNVGSKAF; Calcitonin gene-related peptide 1; UniProt P06881 83-119, looked up) [CGRP, human alpha CGRP: Bachem Feinchemikalien, AG, Budendorf, Switzerland]
- Dilation effects on the contracted blood vessels: dilation effects on the contracted blood vessels are obtained
